Results as given in patent US10420734B2, “Method of treating cancer using selective estrogen receptor modulators” (Duke University, priority 2014, dated 2019).

By UniProt entry, the sequences of proteins in these tests, tags left out.
UniProt P03372, whole entry: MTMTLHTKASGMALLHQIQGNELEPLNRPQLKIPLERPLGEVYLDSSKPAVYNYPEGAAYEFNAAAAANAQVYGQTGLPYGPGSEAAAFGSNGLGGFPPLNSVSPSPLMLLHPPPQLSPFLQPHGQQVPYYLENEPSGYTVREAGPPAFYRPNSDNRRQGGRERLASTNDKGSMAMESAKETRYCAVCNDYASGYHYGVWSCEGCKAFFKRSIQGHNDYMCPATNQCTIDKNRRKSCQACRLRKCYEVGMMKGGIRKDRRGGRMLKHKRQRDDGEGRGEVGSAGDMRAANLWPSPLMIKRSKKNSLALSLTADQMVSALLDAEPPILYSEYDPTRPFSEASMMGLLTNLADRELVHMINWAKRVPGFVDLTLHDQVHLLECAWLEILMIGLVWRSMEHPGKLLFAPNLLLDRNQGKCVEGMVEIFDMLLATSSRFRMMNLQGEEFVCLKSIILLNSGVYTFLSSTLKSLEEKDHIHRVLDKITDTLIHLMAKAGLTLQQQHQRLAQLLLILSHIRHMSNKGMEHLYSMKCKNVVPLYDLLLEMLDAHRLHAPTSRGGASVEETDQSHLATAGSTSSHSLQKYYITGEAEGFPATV

Molecular target: ESR1 (Homo sapiens, UniProt P03372)
Test: ESR1 expression in MCF7 cells (immunoblot, mRNA, MG132 pre-treatment)
Assay type: cell-based
Details: MG132 1 hour pre-treatment, 6 hours ligand
Experimental: Protein expression was analyzed as described (Wittmann et al., (2007) Cancer Res 67 (19):9549-9560) using antibodies purchased from Sigma-Aldrich—A5441 (β-actin) and Santa Cruz Biotechnology—sc-6259 (cytokeratin 18), sc-20680 (lamin A), sc-5546 (α-tubulin) and sc-8005 (ESR1).
For FIG. 6A, MCF7 cells were treated for 24 hours with ICI (10^−13-10^−7 M) or RAD1901 (RAD), (10^−11-10^−5 M). Expression of ESR1 and loading control cytokeratin 18 (CK18—FIG. 7A) in whole cell extracts were detected by immunoblot (top). ESR1 levels relative to CK18 were quantitated by densitometry using Adobe Photoshop (bottom). For FIG. 6B, MCF7 cells were plated as in FIG. 5B prior to 1 hour pre-treatment with vehicle or MG132 (10 μg/ml), followed by 6 hours of treatment with 10^−7 M vehicle, ICI, Ral or RAD1901 (RAD), (10^−8 or 10^−6 M). ESR1 expression was detected as in FIG. 6A. For FIGS. 6C-6D, LTED MCF7 cells were plated in phenol red free media supplemented with FBS that was stripped of growth factors twice using charcoal. For FIG. 6C, after 48 hours, cells were treated for 24 hours with E2 (10^−7 M) or SERDs (10^−6 M) and ESR1 was analyzed as in FIG. 6A. For FIG. 6D, LTED MCF7 cells were treated with ICI or RAD1901 (RAD), (10^−11-10^−6 M) on days 1, 4, and 6 of an 8 day proliferation assay and analyzed as in FIG. 5.

downregulation of ESR1 after pre-treatment with proteasome inhibitor MG132: completely blocked
SMILES: C[C@]12CC[C@@H]3c4ccc(O)cc4C[C@@H](CCCCCCCCC[S+]([O-])CCCC(F)(F)C(F)(F)F)[C@H]3[C@@H]1CC[C@@H]2O (stereo partly shown) [ICI, ICI 182,780, reference compound]
